Results on 4 molecules are retold here after patent US20180127465A1 (priority 2015, published 2018).

Amino acid sequences for entries named in this document (tags omitted).
UniProt P33535, whole entry: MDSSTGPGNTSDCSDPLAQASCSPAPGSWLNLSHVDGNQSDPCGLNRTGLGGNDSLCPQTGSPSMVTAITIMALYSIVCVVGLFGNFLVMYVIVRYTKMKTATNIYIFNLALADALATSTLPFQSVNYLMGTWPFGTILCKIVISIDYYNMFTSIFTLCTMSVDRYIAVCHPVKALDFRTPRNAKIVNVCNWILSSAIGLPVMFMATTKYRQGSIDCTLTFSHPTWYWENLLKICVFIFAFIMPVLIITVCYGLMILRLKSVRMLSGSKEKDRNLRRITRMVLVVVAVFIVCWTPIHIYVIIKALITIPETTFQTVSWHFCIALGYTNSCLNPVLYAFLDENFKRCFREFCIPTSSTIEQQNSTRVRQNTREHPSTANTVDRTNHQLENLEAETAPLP
UniProt P41143, whole entry: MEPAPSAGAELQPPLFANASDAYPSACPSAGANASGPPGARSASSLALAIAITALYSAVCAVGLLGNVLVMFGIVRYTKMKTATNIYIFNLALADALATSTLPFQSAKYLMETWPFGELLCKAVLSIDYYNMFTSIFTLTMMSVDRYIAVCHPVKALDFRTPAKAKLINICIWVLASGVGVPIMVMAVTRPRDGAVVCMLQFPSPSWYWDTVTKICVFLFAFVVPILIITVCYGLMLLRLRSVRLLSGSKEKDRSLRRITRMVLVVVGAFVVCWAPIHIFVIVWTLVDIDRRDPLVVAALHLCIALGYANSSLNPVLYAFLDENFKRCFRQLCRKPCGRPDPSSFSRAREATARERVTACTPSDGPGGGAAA

Test [1] addresses T1, KOR (Homo sapiens, UniProt P41145). Nature of the test: [35S]GTP-γ-S binding assay, antagonist mode, hKOR. Particulars: Table 6; % relative to 10 μM naloxone inhibition of 100 nM U50,488. (In general: GTPγS resists hydrolysis and so accumulates on activated G proteins.)
The target of test [2] is T1, KOR. The experiment in a line: [35S]GTP-γ-S binding assay, agonist mode, hKOR. Conditions: for activity at KOR in words: [35S]GTPγS, KOR agonist and antagonist modes.
Test [3] concerns the target T1, KOR. Nature of the test: Radioligand binding at KOR ([3H]Nor-BNI), Table 3. Particulars: read-out: Ki KOR [3H]Nor-BNI.
Another test concerns the target MOR (Rattus norvegicus, UniProt P33535). Nature of the test: Radioligand competition binding at MOR ([3H]DAMGO). Conditions: read-out: Ki MOR, Table 6, Kd=0.85 nM, membranes of transfected HNB9.10 cells.
Test [4] addresses T1, KOR. The experiment in a line: Radioligand competition binding at KOR ([3H]U69,593), Table 6. Conditions: read-out: Ki KOR, [3H]U69,593, Kd=5.3 nM, membranes of transfected HNB9.10 cells. Background: In a radioligand displacement assay an active substance lowers the binding of a labelled ligand.
In another test the target is DOR (Homo sapiens, UniProt P41143). Nature of the test: Radioligand competition binding at DOR ([3H]DPDPE). Particulars: read-out: Ki DOR, Table 6, Kd=0.50 nM, membranes of transfected HNB9.10 cells.

Molecules are shown by their SMILES. This is a selection: effects in other tests are not listed, and their absence says nothing.

By Ki is commonly meant a measure of affinity in units of concentration, obtained from inhibition or displacement.

Turning to `CCCC[C@@H](NC(=O)[C@@H](N)Cc1c(C)cc(O)cc1C)C(=O)NCC(=O)N[C@@H](Cc1ccc(Cl)cc1)C(=O)N1CCC(N(C(=O)CC)c2ccccc2)CC1`, at KOR [1], the “KOR [35S]GTPγS-binding Imax” value stood at 122%.
Turning to `CCCC[C@@H](NC(=O)[C@@H](N)Cc1c(C)cc(O)cc1C)C(=O)NCC(=O)N[C@@H](Cc1ccccc1)C(N)=O`, the KOR function result at KOR [2] (Table 6, summary in words from binding and agonist/antagonist modes) was “partial agonist”. Besides, the “activity at KOR in words” value on KOR [2] is given as “partial agonist”. In addition, the Ki at KOR [3] came out at 3.4 nM; on MOR, 1.1 nM; at KOR [4], 3.4 nM; on DOR it was 0.25 nM.
Regarding `CCCC[C@@H](NC(=O)[C@@H](N)Cc1c(C)cc(O)cc1C)C(=O)NCC(=O)N[C@@H](Cc1ccc(Cl)cc1)C(N)=O`, the “activity at KOR in words” value on KOR [2] is “partial agonist/antagonist activities”. Also, the Ki on MOR came out at 2.9 nM; at KOR [4], 156 nM; on DOR, 0.61 nM. Further, the “KOR [35S]GTPγS-binding Imax” value on KOR [1] worked out at 60%.
Take `CCCC[C@@H](NC(=O)[C@@H](N)Cc1c(C)cc(O)cc1C)C(=O)NCC(=O)N[C@@H](Cc1ccc(F)cc1)C(N)=O`: the “activity at KOR in words” value at KOR [2] is on record as “partial agonist/antagonist activities”. Besides, the Ki at MOR came to 4.5 nM; at DOR it was 0.99 nM.
